The values that follow are results of earlier work, collected in patent US6107104A, “Modulators of anchoring protein function” (ICOS Corporation, priority 1996, dated 2000).

For series [1] the following is noted: cited from earlier work.
For series [2] the following is noted: human, in vivo; cited from earlier work.

Turning to IL-2: interleukin 2 given as therapy, in series [1] (low dose subcutaneous or continuous infusion therapy), the response rate is 12%. In addition, the “patients responding to therapy” value in series [1] (metastatic renal cell carcinoma or malignant melanoma) was 15-20%. Also, in series [2], the “patients experiencing changes in mental status” value is listed as “Over 70%”; the “patients requiring intubation and mechanical ventilation” value is reported as “Up to 20%”; the “treated patients with anemia requiring transfusions” value is given as 15-20%.
